Source: PubChem BioAssay AID624263 (National Center for Advancing Translational Sciences (NCATS), 2012)
This is a selection; strong and weak results do not stand in their true shares. Activity calls are given as the source filed them. Calls follow the shape of the dose curve; as a rule, active = well fitted activation curve with a large enough effect; inconclusive = small, poorly fitted or top-dose-only effect; inactive = flat fitted curve, though single readings scatter; cell line not stated here.

Experiment: A Quantitative High throughput Screen to Identify Chemical Modulators of PINK1 Expression; also: % of control where 0% means no effect; nearly all actives have a fitted effect of over 65% in size
Conditions: PINK1 immunofluorescence, high-content cytometry, 24 h; series mostly up to 76.6 µM; activation (PINK1 increase): at the top concentration

Row | SMILES | activation (PINK1 increase)
1 | O=[As](O)(c1ccccc1)c1ccc(O)cc1 | inactive: 0.773%
2 | Cc1cc(-c2cccc3ccccc23)c(C)cn1.O=[N+]([O-])c1cc([N+](=O)[O-])c(O)c([N+](=O)[O-])c1 | inactive: 5.18%
3 | O=[N+]([O-])c1ncn(CCn2cnc([N+](=O)[O-])n2)n1 | inactive: -0.471%
4 | CC(=O)NC(SC(=S)N(C)C)C(Cl)(Cl)Cl (stereo unspecified) | inactive: 0.354%
5 | O=[N+]([O-])c1ccc(OP2(=O)COCCO2)cc1 (stereo unspecified) | inactive: 2.38%
6 | c1nnnn1CCn1cnnn1 | inactive: 0.46%
7 | CCOP(C)(=S)SCC(=O)NC(C)(CC)C(=O)O (stereo unspecified) | inactive: -3.47%
8 | CC(C)C(=O)NC(Sc1ccccc1)C(Cl)(Cl)Cl (stereo unspecified) | inactive: 1.67%
9 | O=P(Nc1nccs1)(c1ccccc1)c1ccccc1 | inactive: -1.93%
10 | CP(=O)(Nc1ccc(SC(F)(F)F)cc1)Oc1ccc(F)cc1 (stereo unspecified) | inactive: 11.4%
11 | O=[N+]([O-])c1cc([N+](=O)[O-])c(C(F)(F)F)c([N+](=O)[O-])c1O | inactive: -0.226%
12 | Cc1ccccc1NP(C)(=O)Nc1ccccc1C | inactive: -0.0586%
13 | CCN(CCCl)Cc1ccccc1C | inactive: 0.88%
14 | CP(=O)(Nc1ccc2c(c1)OCCO2)Oc1ccccc1 (stereo unspecified) | inactive: -1.72%
15 | CC(C)(C)C(=O)NC(Sc1ccccc1)C(Cl)(Cl)Cl (stereo unspecified) | inactive: 7.24%
16 | CC(C)c1ccc(OP(C)(=O)Nc2ccc(SC(F)(F)F)cc2)cc1 (stereo unspecified) | inactive: -1.68%
17 | CCc1cc(O)c([N+](=O)[O-])c(C)c1[N+](=O)[O-] | inactive: -0.177%
18 | O=P1(Nc2nc3ccc(Cl)cc3s2)COc2ccccc2O1 (stereo unspecified) | inactive: 1.44%
19 | CCOc1ccc(C2=NCC(CBr)S2)cc1 (stereo unspecified) | inactive: 1.71%
20 | CC(=O)Nc1ccc([As](=O)(O)O)c(O)c1 | inactive: -0.529%
21 | CC(=O)Nc1ccc(Oc2c([N+](=O)[O-])cc([N+](=O)[O-])cc2[N+](=O)[O-])cc1 | inactive: 2.47%
22 | Cc1ccccc1CN(C)C(=O)COC(=O)C(O)(c1ccccc1)c1ccccc1 | inactive: -0.313%
23 | O=C(OCCN1CCN(CCOCc2ccccc2)CC1)C(O)(c1ccccc1)c1ccccc1 | inactive: 0.419%

Row | SMILES | activation (PINK1 increase)
24 | C[C@H]1OP(=O)(Oc2ccccc2)C[C@@H]2O[C@@H]21 (stereo partly specified) | inactive: -1.76%
25 | C[C@@H]1C=CCP(=O)(Oc2ccccc2)O1 (stereo partly specified) | inactive: -0.756%
26 | CC(=O)c1ccc(N2CC2c2ccncc2)cc1 (stereo unspecified) | inactive: -0.289%
27 | COC(=O)C1(C)COP(=O)(NCc2ccccc2)OC1 (stereo unspecified) | inactive: -3.25%
28 | COc1ccc(OP(C)(=O)Nc2ccc(SC(F)(F)F)cc2)cc1 (stereo unspecified) | inactive: 5.68%
29 | O=P1(N(CCCl)CCCl)OCCC2CCCCN21 (stereo unspecified) | inactive: 0.884%
30 | CCOC(=O)c1ccc(NP(C)(=O)Oc2ccc(F)cc2)cc1 (stereo unspecified) | inactive: 0.214%
31 | c1ccc(-c2nn[nH]n2)c(-c2nn[nH]n2)c1 | inactive: -0.116%
32 | Cc1ccc(NP(=O)(Oc2cccc(C)c2)Oc2cccc(C)c2)nc1 | inactive: 10.4%
33 | CCNC(=S)/N=C(\N)N[N+](=O)[O-] | inactive: 0.481%
34 | O=C(NC1CCS(=O)(=O)C1)NP(=S)(Oc1ccccc1)Oc1ccccc1 (stereo unspecified) | inactive: 3.21%
35 | CC(NC(=O)COC(=O)C(O)(c1ccccc1)c1ccccc1)c1ccccc1 (stereo unspecified) | inactive: -1.68%
36 | Cc1ccccc1OP(=O)(Nc1ccccn1)Oc1ccccc1C | inactive: -1.68%
37 | O=c1c2cc([N+](=O)[O-])ccc2[nH]c2c([N+](=O)[O-])cc([N+](=O)[O-])cc12 | inactive: -1.96%
38 | CCCCCOc1ccc(NP(C)(=O)Oc2ccc(Cl)cc2Cl)cc1 (stereo unspecified) | inactive: -1.39%
39 | CN(C)C(=O)Oc1noc2ccccc12 | inactive: 1.54%
40 | O=C(OC1CN2CCC1CC2)c1ccccc1 (stereo unspecified) | inactive: -0.81%
41 | CCN(CC)CCCOC(=O)C(O)(c1ccccc1)C1CCCCC1 (stereo unspecified) | inactive: -1.42%
42 | CCC(=O)N1C2C3N(C(=O)CC)C1C1N(C(=O)CC)C(C(N1C(=O)CC)N3C(=O)CC)N2C(=O)CC | inactive: -1.7%
43 | Cc1c([N+](=O)[O-])cc([N+](=O)[O-])c(Br)c1[N+](=O)[O-] | inactive: 1.17%
44 | COC(=O)c1cc2c(s1)N=C(c1ccccc1)N(C)P2(=O)N1CCOCC1 (stereo unspecified) | inactive: -2.25%
45 | Cc1ccc(OP(=O)(Nc2ccccn2)Oc2ccc(C)cc2)cc1 | inactive: 1.69%
46 | CC(=O)NC(SC(=S)N(CC(C)C)CC(C)C)C(Cl)(Cl)Cl (stereo unspecified) | inactive: 2.14%
